Chains of the proteins cited; added tags and fusions are not shown. Residues count along the entry.
UniProt P98170, 253-347: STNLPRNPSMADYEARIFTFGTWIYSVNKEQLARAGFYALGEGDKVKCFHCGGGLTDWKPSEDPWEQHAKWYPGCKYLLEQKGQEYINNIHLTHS

In article PMC7722097 (ChemMedChem, 2020):

How the values were obtained:
[1] = target: wt-BIR3 (Lys311) domain of XIAP (Homo sapiens, UniProt P98170); experiment: Denaturation thermal shift, wt BIR3 of XIAP; settings: approximate values or bounds in running text; incubation 30 min or 2 h
[2] = target: HA-BIR3 of XIAP-expressing HEK293T cells (Homo sapiens, UniProt P98170); experiment: Immunoblot of HA-BIR3 XIAP-expressing HEK293T cells; format: cell-based; settings: 10 μM compound, 6 h, anti-HA antibody

SMILES: CN[C@@H](C)C(=O)N[C@H](C(=O)N1CCC[C@H]1c1nc(C(=O)c2ccc(F)cc2)cs1)C1CCCCC1 [LCL161, reference compound]
- ΔTm, BIR3 domain of XIAP, as stated in text or legend [1]: ~ 10 °C
- Stabilization of HA-BIR3 in cell (western blot band intensity) [2]: stabilized the BIR3 domain in cell
